From patent US11465987B2, “Compounds for treatment of cancer” (ONCTERNAL THERAPEUTICS, INC., priority 2012, dated 2022)

Test system: PC-3_TxR paclitaxel-resistant prostate cancer cells (P-gp over-expressing)
Conditions: compared IC50 values in PC-3 and PC-3/TxR

For `COc1cc(C(=O)c2csc(Nc3ccc4[nH]ccc4c3)n2)cc(OC)c1OC` [compound 55, (2-(1H-INDOL-5-YLAMINO)THIAZOL-4-YL)(3,4,5-TRIMETHOXYPHENYL)METHANONE], the resistance factor was “(0.4)”.
